pIC50: −log10 of the molar value.
The molecules below were run against T1, MMP-2 (Gelatinase A) (Homo sapiens, UniProt P08253). Conditions: read-out: IC50 MMP2.
T1 sequence (P08253 110-660): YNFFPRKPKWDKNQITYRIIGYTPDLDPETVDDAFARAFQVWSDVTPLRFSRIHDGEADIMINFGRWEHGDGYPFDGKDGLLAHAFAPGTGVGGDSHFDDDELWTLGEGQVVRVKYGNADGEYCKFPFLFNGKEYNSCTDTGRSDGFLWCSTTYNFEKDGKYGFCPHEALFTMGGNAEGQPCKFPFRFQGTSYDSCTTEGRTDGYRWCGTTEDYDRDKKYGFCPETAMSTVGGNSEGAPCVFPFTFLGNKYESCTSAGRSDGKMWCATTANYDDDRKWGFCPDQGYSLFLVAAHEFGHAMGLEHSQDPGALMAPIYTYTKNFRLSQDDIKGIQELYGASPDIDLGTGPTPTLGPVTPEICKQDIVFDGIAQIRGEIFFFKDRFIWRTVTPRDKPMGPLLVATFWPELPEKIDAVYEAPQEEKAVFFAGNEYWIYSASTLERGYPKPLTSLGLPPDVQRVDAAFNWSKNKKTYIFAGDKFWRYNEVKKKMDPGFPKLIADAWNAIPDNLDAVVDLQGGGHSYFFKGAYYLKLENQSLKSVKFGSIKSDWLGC
Format: biochemical

| pIC50 | Structure (SMILES) |
| --- | --- |
| 7.36 | CC(C)[C@H](NS(=O)(=O)c1ccc(-c2ccc(N)cc2)cc1)C(=O)O [(S)-2-(4'-Amino-biphenyl-4-sulfonylamino)-3-methyl-butyric acid] |
| 7.60 | CC(C)[C@H](NS(=O)(=O)c1ccc(-c2ccc(Br)cc2)cc1)C(=O)O [(S)-2-(4'-Bromo-biphenyl-4-sulfonylamino)-3-methyl-butyric acid] |
| 7.89 | CC(C)[C@H](NS(=O)(=O)c1ccc(-c2ccc([N+](=O)[O-])cc2)cc1)C(=O)O [(S)-3-Methyl-2-(4'-nitro-biphenyl-4-sulfonylamino)-butyric acid] |

Reference: US5948780A, “Method for treating and preventing heart failure and ventricular dilatation” (priority 1997, dated 1999)
